These are literature values, as cited in PMC9053952 (RSC Advances, 2020).

Protein sequences, listed by entry. Tags and fused reporters are not part of them. Lines headed by an entry give the natural chain unless they say otherwise; changes in a name come on top.
UniProt P30550: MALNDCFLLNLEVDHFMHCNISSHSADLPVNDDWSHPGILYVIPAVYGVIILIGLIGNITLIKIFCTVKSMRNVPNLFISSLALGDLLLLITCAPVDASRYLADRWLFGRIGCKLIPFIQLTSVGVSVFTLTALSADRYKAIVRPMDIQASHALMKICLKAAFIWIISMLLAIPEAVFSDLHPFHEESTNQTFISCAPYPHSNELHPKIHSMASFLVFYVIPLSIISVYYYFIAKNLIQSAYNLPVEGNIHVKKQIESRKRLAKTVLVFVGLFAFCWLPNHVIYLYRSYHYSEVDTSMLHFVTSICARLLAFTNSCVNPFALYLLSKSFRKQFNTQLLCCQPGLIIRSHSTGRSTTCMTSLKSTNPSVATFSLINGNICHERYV
UniProt Q92847, whole entry: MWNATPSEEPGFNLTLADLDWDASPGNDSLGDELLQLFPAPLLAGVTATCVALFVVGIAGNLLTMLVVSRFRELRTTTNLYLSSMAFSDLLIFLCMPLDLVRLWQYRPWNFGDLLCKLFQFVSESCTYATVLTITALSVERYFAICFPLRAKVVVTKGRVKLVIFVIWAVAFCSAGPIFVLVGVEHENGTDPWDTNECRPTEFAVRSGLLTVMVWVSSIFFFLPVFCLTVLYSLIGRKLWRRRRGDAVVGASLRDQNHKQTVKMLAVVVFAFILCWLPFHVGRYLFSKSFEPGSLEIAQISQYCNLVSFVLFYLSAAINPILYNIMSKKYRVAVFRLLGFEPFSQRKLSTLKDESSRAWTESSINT

One series concerns the target GRPR (Homo sapiens, UniProt P30550). As to conditions: parent peptide, cited from earlier work.
The target of a further series is GHSR-1a (Homo sapiens, UniProt Q92847). As to conditions: cited from earlier work.

Turning to “[DTyr^6,βAla^11,Phe^13,Nle^14]bombesin(6–14) amide [Compound 3]”, the “affinity for GRPR (in words)” value on GRPR is recorded as “very high affinity for GRPR”. For the same substance, the IC50 (as a rule, the midpoint of a concentration-inhibition curve) on GRPR (parental PC-3 cells) was 0.7 nM.
On to “[Dpr(octanoyl)^3,Thr^8]ghrelin(1–8) amide [Compound 2]”, for which the IC50 at GHSR-1a (HEK293 cells transfected with GHSR-1a, parent peptide) is 3.3 nM. Moreover, the “affinity for GHSR-1a (in words)” value at GHSR-1a is recorded as “excellent affinity for GHSR-1a”.
